Values quoted from earlier work, collected in patent US10206949B2, “Composition that relieves heartburn, GERD and hangovers” (priority 2015, dated 2019).

The chains behind the UniProt entries cited, without tags or fusion partners.
UniProt P25021, whole entry: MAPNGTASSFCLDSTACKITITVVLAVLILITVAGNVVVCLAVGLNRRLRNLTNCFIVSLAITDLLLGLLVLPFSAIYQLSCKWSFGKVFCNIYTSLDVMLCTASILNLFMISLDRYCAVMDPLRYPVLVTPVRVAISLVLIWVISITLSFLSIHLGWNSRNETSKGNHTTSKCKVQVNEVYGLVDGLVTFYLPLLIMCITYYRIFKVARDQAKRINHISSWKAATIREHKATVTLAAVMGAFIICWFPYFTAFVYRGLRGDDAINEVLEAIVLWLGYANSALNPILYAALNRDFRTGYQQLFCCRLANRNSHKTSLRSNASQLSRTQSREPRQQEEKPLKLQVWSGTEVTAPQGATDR

Target: histamine receptor (Homo sapiens, UniProt P25021)
Details: clinically

activity relative to cimetidine: 30 times more active than cimetidine
Compound: NC(N)=Nc1nc(CSCCC(N)=NS(N)(=O)=O)cs1 [famotidine, 3-([2-(diaminomethyleneamino)thiazol-4-yl]methylthio)-N′-sulfamoyl-propanimid-amide]
